This series has as its target T1, SarA (staphylococcal accessory regulator A), strain DB (Staphylococcus aureus) (UniProt Q2G2U9).
T1 sequence: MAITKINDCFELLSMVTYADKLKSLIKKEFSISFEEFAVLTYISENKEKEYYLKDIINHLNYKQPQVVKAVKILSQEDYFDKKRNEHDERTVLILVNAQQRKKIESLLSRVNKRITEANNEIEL
Description: EMSA. As to conditions: same buffer; 1 dimer per DNA; dG dissociation 13.0 kcal/mol; text gives 200 pM. For orientation: In EMSA bound probe runs differently from free probe, usually more slowly.

The Kd is the concentration at which binding is half-saturated. Higher therefore signals lower affinity. P3 oligo (45 bp) yielded a Kd of 0.22 nM.
On to P2 oligo (45 bp), for which the dissociation constant Kd turned out to be 0.22 nM.

(Values after patent US6699662.)
